Measurements taken from patent US12152051B2, “Cyclic dinucleotide analogue, pharmaceutical composition thereof, and application” (SHANGHAI DE NOVO PHARMATECH CO., LTD., priority 2018, dated 2024).

Protein sequences, listed by entry. Tags and fused reporters are not part of them.
UniProt Q86WV6, whole entry: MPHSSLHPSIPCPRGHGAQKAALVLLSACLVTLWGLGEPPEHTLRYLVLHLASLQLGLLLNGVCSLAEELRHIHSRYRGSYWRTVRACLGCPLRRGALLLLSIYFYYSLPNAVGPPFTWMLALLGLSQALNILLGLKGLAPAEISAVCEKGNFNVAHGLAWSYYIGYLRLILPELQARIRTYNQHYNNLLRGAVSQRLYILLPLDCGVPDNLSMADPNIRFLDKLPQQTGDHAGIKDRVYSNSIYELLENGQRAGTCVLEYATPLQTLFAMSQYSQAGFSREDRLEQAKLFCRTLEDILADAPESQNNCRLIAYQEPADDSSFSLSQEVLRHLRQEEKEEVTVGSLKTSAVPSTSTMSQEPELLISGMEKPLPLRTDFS

Experiments:
THP-1 dual cells = assay: Type 1 IFN activation assay (THP-1 dual cells, QUANTI-Luc); conditions: PMA-treated THP-1 dual cells, compound in digitonin PB buffer 30 min, then 24 h; expression level of IFN; tested form: di-ammonium salt
Protocol: Plated THP-1 dual cells (Invivogen) as 100000 cells/well in a 96 well-plate, and then phorbol 12-myristate 13-acetate (PMA) was added and the final concentration of PMA was 30 ng/mL. After 24 h incubation, cells were washed with fresh medium for twice, and 3-folds dilution compounds were added to appropriate wells. The compounds were diluted by PB buffer (50 mM HEPES, 100 mM KCl, 3 mM MgCl2, 0.1 mM DTT, 85 mM sucrose, 1 mM ATP, 0.1 mM GTP, 0.2% o bovine serum albumin and 5 μg/ml digitonin) and the top dose was 10 μM, minimum dose was 0.0015 μM. The cells were incubated for 30 min, and then washed with fresh medium for twice again. Add fresh medium, and the cells were incubated for additional 24 h. After incubation, 10 ul supermant and 50 μL QUANTI-Luc (Invivogen) was add to a 96 well-plate, fluorescence was read with TECAN. The express level of IFN was proportional to the fluorescence intensity. Drew the curve with Graphpad Prism and analyse EC50 of the compounds.

STING = STING (Homo sapiens, UniProt Q86WV6); assay: STING IFNβ secretion assay (THP-1 cells, AlphaLISA IFN-β kit); conditions: 5 h incubation, secretion of IFN-β, tested form: di-ammonium salt
Protocol: Plated 40 uL THP-1 cells (ATCC) as 16000 cells/well in a 96 well-plate (Corning, 3596). 3-folds dilution compounds were added to appropriate wells. The compounds were diluted with buffer (RPMI1640+2 mM L-glutamine+1× non-essential amino acids+1 mM sodium pyruvate+0.5% Fetal bovine serum), and the top dose of the compound was 100 μM, minimum dose was 1.23 μM. After 5 h incubation, […] supernant was added to 384-well plate (Greiner, Cat: 784075) and the secretion of IFN-β was detected with AllphaLISA IFN-β kit(PerkinElmer, Cat:AL577C). 1× buffer was prepared to dilute the receptor and donor, and then 4 μL 20 μg/mL Anti-pIFNβ AlphaLISA receptor was added to every well. After 30 mins incubation at room temperature, 4 μL 2 nM biotinylated Anti-pIFNβ antibody was added to a 384 well-plate, incubated overnight at 4° C. 10 μL 40 µg/mL Streptavidin (SA) donor which was diluted with 1×buffer was added, and then incubated at room temperature for 30 min. Fluorescence was read with TECAN. The expressed level of IFN-β was proportional to the fluorescence intensity. Drew the curve with Graphpad Prism and analysed EC50 of the compounds.

Row | EC50 (THP-1 dual cells) [µM] | EC50 (STING) [µM] | Structure (SMILES)
1 | 0.429 | 9.84 | CO[C@H]1[C@H]2OP(=O)(S)OC[C@H]3O[C@@H](n4cnc5c(N)ncnc54)[C@H](F)[C@@H]3OP(=O)(S)OC[C@H]1O[C@H]2n1c(=O)sc2c(N)ncnc21 (single isomer, unassigned) [Compound 6-p3]
2 | 2.08 | 47.6 | Nc1ncnc2c1ncn2[C@@H]1O[C@@H]2COP(=O)(S)O[C@@H]3[C@H](O)[C@@H](COP(=O)(S)O[C@H]2[C@H]1O)O[C@H]3n1c(=O)sc2c(N)ncnc21 (some centres unmarked) [Compound 2-p1]
3 | 1.06 | 58.1 | CO[C@H]1[C@H]2OP(=O)(S)OC[C@H]3O[C@@H](n4cnc5c(N)ncnc54)[C@H](F)[C@@H]3OP(=O)(S)OC[C@H]1O[C@H]2n1c(=O)sc2c(N)ncnc21 (single isomer, unassigned) [6-p2]
4 | 0.311 | 9.4 | CO[C@H]1[C@H]2OP(=O)(S)OC[C@H]3O[C@@H](n4cnc5c(N)ncnc54)[C@H](F)[C@@H]3OP(=O)(S)OC[C@H]1O[C@H]2n1c(=O)sc2c(N)ncnc21 (single isomer, unassigned) [6-p4]
